Reference: publication PMC6114104 (International Journal for Parasitology: Drugs and Drug …, 2018)

Test system: S. neurona + GFP/FLUC parasites
Assay: Luciferase-based S. neurona growth inhibition, EC50 determination
Details: ratio of BT cell TC50 to S. neurona EC50

Cc1c(C(=O)NN2CCCCC2)nn(-c2ccc(Cl)cc2Cl)c1-c1ccc(I)cc1 [AM-251]
TI (TC50/EC50): 59
